Assay results taken from patent publication US20040242673A1.

Target: human PDE6D (Homo sapiens, UniProt O43924)

Row | Compound | Kd
1 | CN(C(=O)c1ccc(-c2ccc(F)cc2)s1)c1ccccc1 | 469 nM
2 | O=C(Nc1ccccc1)c1ccc(-c2ccc(F)cc2)s1 | 1680 nM
3 | CC(=O)c1sc(-c2ccc(F)cc2)cc1NC(=O)CN1CCN(C(=O)c2ccc(C)cc2)CC1 | 348 nM
4 | CCc1sc(C(C)(C)C)cc1NC(=O)c1ccccc1 | 830 nM
5 | CC(=O)c1sc(-c2ccc(F)cc2)cc1NC(=O)c1cccs1 | 567 nM
